Measured values reported in patent US12491252B2, “Substituted 3-amino-5-phenylbenzamide compounds as covalent inhibitors of enhancer zeste homolog 2 (EZH2) and proteolysis-targeting chimeric derivatives thereof (PROTACs) that induce degradation of EZH2” (Northwestern University, priority 2021, dated 2025).

Key:
Type in all cases: cell-based
C4-2B cells [1] = assay: WST cell proliferation assay in C4-2B cells; settings: FIG. 22, 6 days
Protocol: FIG. 22A-22B. WST cell proliferation assay of indicated compounds in C4-2B cells. Cells were treated for 6 days. […] (FIG. 19B) Effects of indicated compounds on EZH2, AR, and FOXA1 by western blot at 1 μM in C4-2B cells.
(§1) Cell proliferation was measured using WST-1 Kit (Clontech) according to manufacturer's protocol.

C4-2B cells [2] = assay: Live imaging cell proliferation of C4-2B cells; settings: FIG. 20A, monitored over 168 hours
Protocol: (§2) FIG. 20A-20B. (FIG. 20A) Live imaging cell proliferation of C4-2B cells. Cells were treated with indicated compounds and monitored over 168 hours for proliferation by phase object confluence. DMSO is set as the negative control. […] (FIG. 20B) Colony assays using C4-2B cells after treatment with the indicated compounds for 7 days.

LNCaP cells [3] = assay: Live imaging cell proliferation of LNCaP cells; settings: FIG. 17A, monitored over 168 hours
Protocol: as §2, with “FIG. 17A-17B.” for “FIG. 20A-20B.”, “(FIG. 17A)” for “(FIG. 20A)”, “of LNCaP” for “of C4-2B”, “(FIG. 17B)” for “(FIG. 20B)”, “using LnCaP” for “using C4-2B”

LNCaP cells [4] = assay: WST cell proliferation/viability assay in LNCaP cells; settings: FIG. 19A, 6 days
Protocol: FIG. 19A-19B. (FIG. 19A) WST cell proliferation assay of indicated compounds in LNCaP cells. […] (FIG. 19B) Effects of indicated compounds on EZH2, AR, and FOXA1 by western blot at 1 μM in LNCaP cells.
FIG. 23. WST cell viability assay of EPZ-6438 (“EPZ”) and 6272 across a concentration range in LNCaP cells after 5 days' treatment.
as §1

CCN(c1cc(-c2ccc(CN3CCOCC3)cc2)cc(C(=O)NCc2c(C)cc(C)[nH]c2=O)c1C)C1CCOCC1 [EPZ-6438, reference compound]
Inhibition of proliferation (WST) (C4-2B cells [1]): similarly potent effects on inhibiting the proliferation | Cell proliferation by phase object confluence (C4-2B cells [2]): significant effects | Cell proliferation by phase object confluence (LNCaP cells [3]): significant effects | Inhibition of proliferation (WST) (LNCaP cells [4]): similarly potent effects on inhibiting the proliferation
